Experimental findings from ChEMBL document CHEMBL1124221 are described below.

Amino acid sequences for entries named in this document (tags omitted). A change or cut given only in a name is not applied to a line headed by its entry.
UniProt P97266, whole entry, looked up: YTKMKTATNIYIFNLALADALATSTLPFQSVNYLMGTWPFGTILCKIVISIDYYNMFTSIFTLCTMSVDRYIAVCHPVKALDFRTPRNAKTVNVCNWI
UniProt P41144: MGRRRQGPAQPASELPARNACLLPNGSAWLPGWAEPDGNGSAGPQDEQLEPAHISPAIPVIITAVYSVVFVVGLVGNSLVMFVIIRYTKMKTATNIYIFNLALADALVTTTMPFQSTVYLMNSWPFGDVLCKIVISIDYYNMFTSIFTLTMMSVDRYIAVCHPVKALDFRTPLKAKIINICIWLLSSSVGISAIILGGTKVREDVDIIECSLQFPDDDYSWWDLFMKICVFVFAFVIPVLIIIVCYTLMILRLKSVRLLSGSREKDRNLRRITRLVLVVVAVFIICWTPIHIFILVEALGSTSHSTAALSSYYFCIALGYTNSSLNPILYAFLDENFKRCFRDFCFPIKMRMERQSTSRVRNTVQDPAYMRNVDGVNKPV

Assay [1] addresses Mu-type opioid receptor (Cavia porcellus, UniProt P97266). Kind of assay: Binding affinity for the Opioid receptor mu 1.
Assay [2] concerns the target Kappa-type opioid receptor (Cavia porcellus, UniProt P41144). Kind of assay: Binding affinity for the Opioid receptor kappa 1.

Where “and” joins values, the source holds several entries; their conditions need not be identical. Equal values may be shown once.

`CN(C(=O)Cc1cccc2sccc12)[C@@H]1CCCC[C@H]1N1CCCCCC1`: the figures for the Ki in assay [1] and in assay [2] were 810 nM and 40 nM, respectively. For the molecule `C=CCN(C)[C@@H]1CCCC[C@H]1N(C)C(=O)Cc1cccc2sccc12`, the inhibition constant Ki amounted to 210 nM in assay [1] and 52 nM in assay [2]. For the molecule `CN(CCc1cccs1)[C@@H]1CCCC[C@H]1N(C)C(=O)Cc1cccc2sccc12`, the Ki came out at 81 nM in assay [1] and 82 nM in assay [2]. In the case of `CCN(CC)[C@@H]1CCCC[C@H]1N(C)C(=O)Cc1cccc2sccc12`, the results for the Ki in assay [1] and in assay [2] were 350 nM and 1800 nM, respectively. On the same counts, the results for `CN(CC1CC1)[C@@H]1CCCC[C@H]1N(C)C(=O)Cc1cccc2sccc12` are 190 nM and 200 nM. The like results for `CN(C(=O)Cc1ccc(Cl)c(Cl)c1)C1CCCCC1N1CCCC1` (stereo not drawn) were, in that order, 880 nM and 10 nM. Turning to `CN(C(=O)Cc1cccc2occc12)[C@@H]1CCCC[C@H]1N1CCCC1`, the Ki in assay [1] is 3300 nM and 1600 nM and 1400 nM. `CN(C(=O)Cc1ccc(Cl)c(Cl)c1)C1CCC2(CCCO2)CC1N1CCCC1` (stereo not drawn): the results for the Ki in assay [1] and in assay [2] were 6400 nM and 17 nM, respectively. On the same counts, the results for `CN(C(=O)Cc1c[nH]c2ccccc12)[C@@H]1CCCC[C@H]1N1CCCC1` are 2900 nM and 74 nM.

For `CN(C(=O)Cc1ccccc1)[C@H]1CC[C@@]2(CCCO2)C[C@@H]1N1CCCC1`, the Ki in assay [1] worked out at 52 nM; in assay [2], 7.3 nM. The like results for `CN(C(=O)Cc1cccc2occc12)[C@@H]1CCCC[C@H]1N1CCCCCC1` were, in that order, 3500 nM and 29 nM. As for `CC[C@@]12CCN(CC3CC3)C(C(=O)c3ccc(O)cc31)[C@@H]2C`, in assay [1], the Ki worked out at 1.7 nM.

As for `CN(CCc1ccccc1)[C@@H]1CCCC[C@H]1N(C)C(=O)Cc1cccc2sccc12`, the results for the Ki in assay [1] and in assay [2] were 26 nM and 30 nM, respectively. The like results for `CN(C(=O)Cc1cccc2sccc12)[C@@H]1CCCC[C@H]1N1CCCCC1` were, in that order, 2400 nM and 250 nM. Consider `CN(C(=O)Cc1cccs1)[C@@H]1CCCC[C@H]1N1CCCC1`, for which the Ki in assay [1] was determined as 18000 nM; in assay [2] it was 720 nM.
